pKi: −log10 of the molar value.
Molecular target: m5-HT1A (Mus musculus, UniProt Q64264)
Assay: biochemical

The chains behind the UniProt entries cited, without tags or fusion partners.
UniProt Q64264, whole entry: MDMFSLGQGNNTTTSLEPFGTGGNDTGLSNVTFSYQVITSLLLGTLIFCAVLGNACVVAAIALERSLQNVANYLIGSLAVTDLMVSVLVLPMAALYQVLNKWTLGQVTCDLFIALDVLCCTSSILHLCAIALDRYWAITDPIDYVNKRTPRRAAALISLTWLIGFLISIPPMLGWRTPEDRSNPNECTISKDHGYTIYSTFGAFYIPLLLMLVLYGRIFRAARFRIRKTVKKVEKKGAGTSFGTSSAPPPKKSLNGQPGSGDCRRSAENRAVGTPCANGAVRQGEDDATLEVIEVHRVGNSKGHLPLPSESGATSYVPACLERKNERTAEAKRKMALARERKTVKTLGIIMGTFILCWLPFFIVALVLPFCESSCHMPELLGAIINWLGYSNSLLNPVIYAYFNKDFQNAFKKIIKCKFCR

NCCc1c[nH]c2ccc(O)cc12 [5-HT, Serotonin]
pKi: 8.10 to 9.52

— paper PMC12745965 (ACS chemical neuroscience, 2024)
